Amino acid sequences for entries named in this document (tags omitted).
UniProt Q01726, whole entry: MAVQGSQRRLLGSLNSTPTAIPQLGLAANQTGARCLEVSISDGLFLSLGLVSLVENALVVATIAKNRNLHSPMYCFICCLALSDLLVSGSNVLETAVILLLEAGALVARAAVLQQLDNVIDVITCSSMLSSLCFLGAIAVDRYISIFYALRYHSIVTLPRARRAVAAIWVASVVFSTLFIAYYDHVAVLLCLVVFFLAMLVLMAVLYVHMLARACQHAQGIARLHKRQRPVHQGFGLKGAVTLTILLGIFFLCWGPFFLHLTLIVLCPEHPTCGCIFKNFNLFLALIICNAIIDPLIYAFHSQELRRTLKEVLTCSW
UniProt P33032, whole entry: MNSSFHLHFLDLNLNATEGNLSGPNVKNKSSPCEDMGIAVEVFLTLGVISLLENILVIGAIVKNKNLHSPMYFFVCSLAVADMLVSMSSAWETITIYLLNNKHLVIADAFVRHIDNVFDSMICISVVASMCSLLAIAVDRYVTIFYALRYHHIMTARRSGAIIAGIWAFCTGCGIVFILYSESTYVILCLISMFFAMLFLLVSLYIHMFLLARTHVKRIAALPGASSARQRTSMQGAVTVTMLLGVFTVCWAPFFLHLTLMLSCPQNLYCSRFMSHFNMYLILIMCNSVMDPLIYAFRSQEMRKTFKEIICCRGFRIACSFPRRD

In patent publication US20080021067A1, “Methods For The Treatment Of Substance Abuse And Addiction” (priority 2004, published 2008):

Assays:
hMC1bR [1] = molecular target: T1, hMC1bR (Homo sapiens, UniProt Q01726); assay: Membrane binding assay, 125I-NDP-alpha-MSH competition; conditions: read-out: Binding Assay IC50 hMC1bR; cloned human MCR in mouse L- or CHO-cell membranes
hMC5R [2] = molecular target: T2, hMC5R (Homo sapiens, UniProt P33032); assay: as above; conditions: read-out: Binding Assay IC50 hMC5R; cloned human MCR in mouse L- or CHO-cell membranes
hMC1bR [3] = molecular target: T1, hMC1bR; assay: cAMP functional assay (agonist); assay type: cell-based; conditions: read-out: cAMP Assay EC50 hMC1bR; cells expressing human melanocortin receptor
hMC5R [4] = molecular target: T2, hMC5R; assay: cAMP functional assay (agonist); assay type: cell-based; conditions: read-out: cAMP Assay EC50 hMC5R; cells expressing human melanocortin receptor

Q: Which results are given for `CNC(=O)c1cc(F)ccc1C1CCN(C(=O)[C@@H]2CN(C(C)(C)C)C[C@H]2c2ccc(F)cc2F)CC1`?
A: IC50 (hMC1bR [1]): 7600 nM; IC50 (hMC5R [2]): 5250 nM; EC50 (hMC1bR [3]): 1800 nM; EC50 (hMC5R [4]): > 5000 nM

Q: How did the IC50 (hMC5R [2]) turn out when `CNC(=O)c1cc(C)ccc1C1CCN(C(=O)[C@@H]2CN(C(C)(C)C)C[C@H]2c2ccc(F)cc2F)CC1` was run?
A: The IC50 was 3900 nM.

Q: And the EC50 (hMC1bR [3])?
A: Its EC50 is 1100 nM.

Q: What about the EC50 (hMC5R [4]) of the same compound?
A: Its EC50 is greater than 5000 nM.

Q: `CNC(=O)c1ccc(F)cc1C1CCN(C(=O)[C@@H]2CN(C(C)(C)C)C[C@H]2c2ccc(F)cc2F)CC1` was tested. Which EC50 (hMC1bR [3]) did it give?
A: Its EC50 is 1800 nM.

Q: How did the EC50 (hMC1bR [3]) turn out when `CNC(=O)c1ccc(C)cc1C1CCN(C(=O)[C@@H]2CN(C(C)(C)C)C[C@H]2c2ccc(F)cc2F)CC1` was run?
A: The EC50 was 580 nM.
